Measurements taken from patent publication US5614548A, “Quaternary amine containing ether or ester lipid derivatives and therapeutic compositions” (priority 1994, dated 1997).

System: CEM-SS cells

## DEAE-Dextran
  toxicity to CEM-SS cell growth: toxic to CEM-SS cell growth
